## Cyclic peptide permeability, from CycPeptMPDB

Data: CycPeptMPDB; original report Kelly et al. 2021, doi:10.1021/jacs.0c06115.

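The data file gives no further conditions (lipid, pH, time, direction or concentration), and values from different papers need not be comparable. Other peptides of the study may be missing here. Peptides that the database sets to -10, its floor, are left out.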

PAMPA measures passive passage through an artificial lipid membrane.
Values are log10 P with P in cm/s, so -5 is more permeable than -7.

compound	PAMPA (log10 cm/s)
CC(=O)N1CCC[C@@H]1C(=O)N(C)[C@@H](CC(C)C)C(=O)N[C@@H]1C(=O)N[C@@H](CC(C)C)C(=O)N[C@@H](CC(C)C)C(=O)N[C@@H](CC(C)C)C(=O)N[C@@H](C)C(=O)N[C@@H](CC(C)C)C(=O)N2CCC[C@@H]2C(=O)O[C@@H]1C	-6.92
CC(=O)N1CCC[C@H]1C(=O)N[C@@H]1C(=O)N(C)[C@H](CC(C)C)C(=O)N[C@H](CC(C)C)C(=O)N[C@H](CC(C)C)C(=O)N(C)[C@@H](CC(C)C)C(=O)N[C@@H](C)C(=O)N[C@@H](CC(C)C)C(=O)N2CCC[C@@H]2C(=O)O[C@@H]1C	-6.10
CC(=O)N1CCC[C@H]1C(=O)N(C)[C@H](CC(C)C)C(=O)N[C@@H]1C(=O)N[C@H](CC(C)C)C(=O)N(C)[C@@H](CC(C)C)C(=O)N(C)[C@H](CC(C)C)C(=O)N(C)[C@H](C)C(=O)N[C@@H](CC(C)C)C(=O)N2CCC[C@H]2C(=O)O[C@@H]1C	-5.22
CC(=O)N1CCC[C@@H]1C(=O)N(C)[C@@H](CC(C)C)C(=O)N[C@@H]1C(=O)N(C)[C@H](CC(C)C)C(=O)N[C@H](CC(C)C)C(=O)N(C)[C@H](CC(C)C)C(=O)N[C@H](C)C(=O)N[C@@H](CC(C)C)C(=O)N2CCC[C@@H]2C(=O)O[C@@H]1C	-5.79
CC(=O)N1CCC[C@@H]1C(=O)N(C)[C@H](CC(C)C)C(=O)N[C@@H]1C(=O)N(C)[C@@H](CC(C)C)C(=O)N(C)[C@H](CC(C)C)C(=O)N(C)[C@H](CC(C)C)C(=O)N(C)[C@H](C)C(=O)N[C@H](CC(C)C)C(=O)N2CCC[C@H]2C(=O)O[C@@H]1C	-5.15
CC(=O)N1CCC[C@H]1C(=O)N(C)[C@H](CC(C)C)C(=O)N[C@@H]1C(=O)N[C@H](CC(C)C)C(=O)N(C)[C@@H](CC(C)C)C(=O)N[C@H](CC(C)C)C(=O)N[C@@H](C)C(=O)N[C@H](CC(C)C)C(=O)N2CCC[C@H]2C(=O)O[C@@H]1C	-6.15
CC(=O)N1CCC[C@H]1C(=O)N(C)[C@H](CC(C)C)C(=O)N[C@@H]1C(=O)N[C@H](CC(C)C)C(=O)N[C@H](CC(C)C)C(=O)N[C@H](CC(C)C)C(=O)N(C)[C@H](C)C(=O)N[C@H](CC(C)C)C(=O)N2CCC[C@H]2C(=O)O[C@@H]1C	-6.52
CC(=O)N1CCC[C@H]1C(=O)N(C)[C@@H](CC(C)C)C(=O)N[C@@H]1C(=O)N(C)[C@H](CC(C)C)C(=O)N(C)[C@@H](CC(C)C)C(=O)N(C)[C@H](CC(C)C)C(=O)N[C@@H](C)C(=O)N[C@@H](CC(C)C)C(=O)N2CCC[C@H]2C(=O)O[C@@H]1C	-5.36
CC(=O)N1CCC[C@@H]1C(=O)N(C)[C@@H](CC(C)C)C(=O)N[C@@H]1C(=O)N[C@@H](CC(C)C)C(=O)N(C)[C@H](CC(C)C)C(=O)N(C)[C@@H](CC(C)C)C(=O)N(C)[C@@H](C)C(=O)N[C@H](CC(C)C)C(=O)N2CCC[C@H]2C(=O)O[C@@H]1C	-5.62
CC(=O)N1CCC[C@@H]1C(=O)N(C)[C@H](CC(C)C)C(=O)N[C@@H]1C(=O)N(C)[C@@H](CC(C)C)C(=O)N[C@@H](CC(C)C)C(=O)N(C)[C@@H](CC(C)C)C(=O)N(C)[C@@H](C)C(=O)N[C@H](CC(C)C)C(=O)N2CCC[C@H]2C(=O)O[C@@H]1C	-6.91
CC(=O)N1CCC[C@@H]1C(=O)N(C)[C@H](CC(C)C)C(=O)N[C@@H]1C(=O)N[C@@H](CC(C)C)C(=O)N(C)[C@H](CC(C)C)C(=O)N[C@H](CC(C)C)C(=O)N(C)[C@H](C)C(=O)N[C@@H](CC(C)C)C(=O)N2CCC[C@H]2C(=O)O[C@@H]1C	-6.73
CC(=O)N1CCC[C@@H]1C(=O)N(C)[C@@H](CC(C)C)C(=O)N[C@@H]1C(=O)N[C@H](CC(C)C)C(=O)N[C@H](CC(C)C)C(=O)N(C)[C@H](CC(C)C)C(=O)N[C@@H](C)C(=O)N[C@H](CC(C)C)C(=O)N2CCC[C@H]2C(=O)O[C@@H]1C	-5.87
CC(=O)N1CCC[C@H]1C(=O)N(C)[C@H](CC(C)C)C(=O)N[C@@H]1C(=O)N(C)[C@H](CC(C)C)C(=O)N(C)[C@@H](CC(C)C)C(=O)N(C)[C@H](CC(C)C)C(=O)N(C)[C@@H](C)C(=O)N[C@H](CC(C)C)C(=O)N2CCC[C@H]2C(=O)O[C@@H]1C	-5.32
CC(=O)N1CCC[C@H]1C(=O)N[C@@H]1C(=O)N[C@H](CC(C)C)C(=O)N[C@@H](CC(C)C)C(=O)N[C@@H](CC(C)C)C(=O)N[C@@H](CC(C)C)C(=O)N[C@@H](C)C(=O)N[C@@H](CC(C)C)C(=O)N2CCC[C@@H]2C(=O)O[C@@H]1C	-6.33
CC(=O)N1CCC[C@H]1C(=O)N(C)[C@@H](CC(C)C)C(=O)N[C@@H]1C(=O)N(C)[C@@H](CC(C)C)C(=O)N(C)[C@@H](CC(C)C)C(=O)N[C@H](CC(C)C)C(=O)N[C@H](C)C(=O)N[C@H](CC(C)C)C(=O)N2CCC[C@H]2C(=O)O[C@@H]1C	-6.51

The first 2 entries again:

| compound | PAMPA (log10 cm/s) |
|---|---|
| CC(=O)N1CCC[C@@H]1C(=O)N(C)[C@@H](CC(C)C)C(=O)N[C@@H]1C(=O)N[C@@H](CC(C)C)C(=O)N[C@@H](CC(C)C)C(=O)N[C@@H](CC(C)C)C(=O)N[C@@H](C)C(=O)N[C@@H](CC(C)C)C(=O)N2CCC[C@@H]2C(=O)O[C@@H]1C | -6.92 |
| CC(=O)N1CCC[C@H]1C(=O)N[C@@H]1C(=O)N(C)[C@H](CC(C)C)C(=O)N[C@H](CC(C)C)C(=O)N[C@H](CC(C)C)C(=O)N(C)[C@@H](CC(C)C)C(=O)N[C@@H](C)C(=O)N[C@@H](CC(C)C)C(=O)N2CCC[C@@H]2C(=O)O[C@@H]1C | -6.10 |